Where a name gives a salt, the structure may show the parent alone.
Assays:
[1] = target: AGAP002232 (Anopheles gambiae, UniProt A0A1S4GEY1); test: Fluo-4 calcium assay in CRE-luc2P HEK-293 cells expressing AGAP002232; format: cell-based; settings: antagonist test; receptor not given, taken as both 5-HT2 cell lines
Experimental: The GloResponse™ CRE-luc2P human embryonic kidney (HEK-293) reporter cells were incubated at 37 °C with an atmosphere of 5% CO2, and maintained in Dulbecco’s Modified Eagle Medium (DMEM) supplemented with 10% fetal bovine serum (FBS) and […] hygromycin B. Transfection of the HEK-293 cells with 1 μg of plasmid DNA was performed with Amaxa Nucleofector™ technology (Lonza, Basel, Switzerland) as per manufacturer’s instructions. A week post-transfection, selective pressure was applied with […] of G418 antibiotic to generate stable lines.
1 × 10^6 cells per well were seeded into a 96-well black all-clear bottom plate and incubated overnight in 10% FBS/90% DMEM at 37 °C with an atmosphere of 5% CO2. […] Fluorescence levels were determined with a FlexStation3 microplate reader, with excitation and emission wavelengths set to 485 and 525 nm, respectively (Molecular Devices LLC). Basal fluorescence levels were measured for 17 seconds, at which time, 25 μl of the agonist compound was added. Fluorescence measurements continued to be recorded for a total of 120 seconds at 2-second intervals. When testing antagonists, cells were treated with the compound prior to determination of fluorescence levels.
Luminescence and calcium assay data were normalized and fitted with a non-linear least squares regression to generate dose-response curves, EC50 and IC50 values. […]

Chains of the proteins cited; added tags and fusions are not shown.
UniProt A0A1S4GEY1, entry or part of it: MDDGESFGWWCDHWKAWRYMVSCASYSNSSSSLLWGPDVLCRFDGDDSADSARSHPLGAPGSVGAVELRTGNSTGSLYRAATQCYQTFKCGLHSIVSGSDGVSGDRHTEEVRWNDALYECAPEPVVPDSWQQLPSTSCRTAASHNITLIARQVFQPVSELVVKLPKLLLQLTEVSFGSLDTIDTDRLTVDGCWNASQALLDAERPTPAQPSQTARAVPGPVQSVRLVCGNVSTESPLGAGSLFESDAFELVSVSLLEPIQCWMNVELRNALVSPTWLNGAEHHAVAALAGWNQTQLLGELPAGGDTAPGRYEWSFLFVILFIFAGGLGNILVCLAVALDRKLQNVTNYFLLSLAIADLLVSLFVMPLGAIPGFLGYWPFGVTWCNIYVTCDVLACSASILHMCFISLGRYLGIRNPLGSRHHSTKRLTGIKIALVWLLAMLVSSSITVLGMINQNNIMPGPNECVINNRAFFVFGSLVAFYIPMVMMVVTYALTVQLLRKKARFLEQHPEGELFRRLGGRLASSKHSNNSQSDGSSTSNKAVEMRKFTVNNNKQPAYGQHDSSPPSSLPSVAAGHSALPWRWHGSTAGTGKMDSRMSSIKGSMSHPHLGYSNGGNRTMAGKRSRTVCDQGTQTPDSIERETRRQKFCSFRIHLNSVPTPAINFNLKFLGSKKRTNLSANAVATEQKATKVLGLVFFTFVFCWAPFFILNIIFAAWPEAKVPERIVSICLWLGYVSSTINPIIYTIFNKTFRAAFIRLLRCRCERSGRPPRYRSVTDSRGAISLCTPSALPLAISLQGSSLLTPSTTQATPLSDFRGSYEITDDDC
UniProt A7UR33, entry or part of it: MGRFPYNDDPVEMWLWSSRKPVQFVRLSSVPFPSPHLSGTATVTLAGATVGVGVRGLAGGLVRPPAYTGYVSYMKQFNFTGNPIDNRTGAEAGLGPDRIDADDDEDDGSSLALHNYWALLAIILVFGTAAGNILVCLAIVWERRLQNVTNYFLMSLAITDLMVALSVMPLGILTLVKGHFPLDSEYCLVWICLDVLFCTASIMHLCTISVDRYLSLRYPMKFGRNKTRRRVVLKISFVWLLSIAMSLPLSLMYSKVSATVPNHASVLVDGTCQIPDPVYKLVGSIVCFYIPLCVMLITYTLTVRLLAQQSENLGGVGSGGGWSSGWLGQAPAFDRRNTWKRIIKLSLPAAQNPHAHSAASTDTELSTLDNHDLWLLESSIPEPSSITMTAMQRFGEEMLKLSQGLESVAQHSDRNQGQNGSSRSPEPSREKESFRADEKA

[2] = target: AGAP002229 (Anopheles gambiae, UniProt A7UR33); test: Fluo-4 calcium assay in CRE-luc2P HEK-293 cells expressing AGAP002229; format: cell-based; settings: antagonist test; receptor not given, taken as both 5-HT2 cell lines
Experimental: A week post-transfection, selective pressure was applied with […] of G418 antibiotic to generate stable lines.
1 × 10^6 cells per well were seeded into a 96-well black all-clear bottom plate and incubated overnight in 10% FBS/90% DMEM at 37 °C with an atmosphere of 5% CO2. The following day, 2X Fluo-4 Direct calcium dye (Molecular Devices LLC, San Jose, CA) was added to each well and incubated in the same conditions for 45 minutes before the assay was completed. At this time, serial dilutions of the test compounds were prepared in a 96-well clear flat bottom plate. […] Fluorescence measurements continued to be recorded for a total of 120 seconds at 2-second intervals. When testing antagonists, cells were treated with the compound prior to determination of fluorescence levels.
Luminescence and calcium assay data were normalized and fitted with a non-linear least squares regression to generate dose-response curves, EC50 and IC50 values. Unpaired t-tests or Dunnett’s multiple comparisons test were performed accordingly to compare EC50 or IC50 values. Locomotion was measured based on the distance required for flight recovery. […] In the blood-feeding experiments, the percentage of blood-fed mosquitoes was calculated for each treatment group. […] Size of bloodmeals were compared with an unpaired t-test or Mann-Whitney test after normality was evaluated with the Kolmogorov-Smirnov test. […]

CN1CCC(=C2c3ccccc3C=Cc3ccccc32)CC1 [cyproheptadine, cyproheptadine hydrochloride sesquihydrate]
Ability to inhibit activity in a dose-response manner [1]: exhibited the ability to inhibit activity in a dose-response manner
Ability to inhibit activity in a dose-response manner [2]: exhibited the ability to inhibit activity in a dose-response manner

From paper PMC6418270, “The pharmacological and functional characterization of the serotonergic system in Anopheles gambiae and Aedes aegypti: influences on flight and blood-feeding behavior” (Scientific Reports, 2019)
